Source: ChEMBL document CHEMBL1125951, “Synthesis and dopaminergic activity of the enantiomers of 6-methyl-4,5a,6,7,8-hexahydrothiazolo[4,5-f]quinolin-2-amine (PD 128483)” (Bioorg Med Chem Lett, 1991)

Chains of the proteins cited; added tags and fusions are not shown. Lines headed by an entry give the natural chain unless they say otherwise; changes in a name come on top.
UniProt P18901: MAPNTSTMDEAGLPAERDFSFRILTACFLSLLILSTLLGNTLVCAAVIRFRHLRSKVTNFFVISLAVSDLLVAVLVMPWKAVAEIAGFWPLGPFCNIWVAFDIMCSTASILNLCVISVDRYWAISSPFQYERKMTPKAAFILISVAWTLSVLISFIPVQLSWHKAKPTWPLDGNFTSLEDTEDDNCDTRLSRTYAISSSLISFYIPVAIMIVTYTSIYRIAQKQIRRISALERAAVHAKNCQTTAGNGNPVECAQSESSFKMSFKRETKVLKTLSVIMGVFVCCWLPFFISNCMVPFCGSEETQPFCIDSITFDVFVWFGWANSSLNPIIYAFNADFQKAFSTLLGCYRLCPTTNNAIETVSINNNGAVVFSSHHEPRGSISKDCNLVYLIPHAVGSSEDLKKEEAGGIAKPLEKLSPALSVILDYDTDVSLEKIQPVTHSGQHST
UniProt P61169, whole entry: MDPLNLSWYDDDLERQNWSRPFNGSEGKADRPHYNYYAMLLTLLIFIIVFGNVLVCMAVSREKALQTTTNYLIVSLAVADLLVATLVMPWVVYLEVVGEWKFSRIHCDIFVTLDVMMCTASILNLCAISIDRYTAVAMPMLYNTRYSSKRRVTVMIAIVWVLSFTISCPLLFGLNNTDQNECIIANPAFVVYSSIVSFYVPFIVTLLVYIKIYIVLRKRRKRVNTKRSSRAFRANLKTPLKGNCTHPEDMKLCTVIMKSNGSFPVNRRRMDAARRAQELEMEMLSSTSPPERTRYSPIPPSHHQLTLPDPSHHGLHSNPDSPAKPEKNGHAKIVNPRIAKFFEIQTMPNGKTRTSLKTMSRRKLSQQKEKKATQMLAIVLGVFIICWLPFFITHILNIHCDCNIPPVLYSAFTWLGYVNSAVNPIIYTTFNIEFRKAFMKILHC

What was measured:
[1] = target: Dopamine receptors; D1 & D2 (Rattus norvegicus, UniProt P18901+P61169); assay: In vitro binding affinity to Dopamine receptor D1/Dopamine receptor D2 in rat striatal membranes using [3H]N-propylnorapomorphine; format: cell membranes, Striatum, Membrane
[2] = target: D(2) dopamine receptor (Rattus norvegicus, UniProt P61169); assay: In vitro binding affinity to Dopamine receptor D2 in rat striatal membranes using D2 antagonist [3H]spiperone; format: cell membranes, Striatum, Membrane

CCCN1CCC=C2c3nc(N)sc3CC[C@@H]21
IC50 [1]: 295 nM

CCCN1CCC=C2c3nc(N)sc3CC[C@H]21
IC50 [1]: 138 nM | IC50 [2]: 860 nM
